PubChem BioAssay (NCI)
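Grown in 96-well plates, cells were treated for 48 hours with each compound at five concentrations. Insufficient inhibition: endpoint recorded as highest concentration tested. Abbreviation: GI50, concentration required for 50% inhibition of growth. Definition used: TGI = concentration required for complete inhibition of growth.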

Legend:
Test in all cases: NCI anticancer screen, dose series, 48 h
CAKI-1 renal = test system: CAKI-1 renal
MALME-3M melanoma = test system: MALME-3M melanoma
HOP-62 NSCLC = test system: HOP-62 NSCLC
SF-268 CNS = test system: SF-268 CNS
TK-10 renal = test system: TK-10 renal
U251 CNS = test system: U251 CNS
MOLT-4 leukemia = test system: MOLT-4 leukemia
OVCAR-8 ovarian = test system: OVCAR-8 ovarian
NCI-H322M lung = test system: NCI-H322M lung
SK-MEL-5 melanoma = test system: SK-MEL-5 melanoma
SK-MEL-28 melanoma = test system: SK-MEL-28 melanoma
LOX IMVI melanoma = test system: LOX IMVI melanoma
UACC-62 melanoma = test system: UACC-62 melanoma
DU-145 prostate = test system: DU-145 prostate
EKVX NSCLC = test system: EKVX NSCLC
NCI-H23 lung = test system: NCI-H23 lung
UACC-257 melanoma = test system: UACC-257 melanoma
BT-549 breast = test system: BT-549 breast
MCF7 breast = test system: MCF7 breast
HT29 colon = test system: HT29 colon
HCT-116 colon = test system: HCT-116 colon
ACHN renal = test system: ACHN renal
MDA-MB-435 = test system: MDA-MB-435
HCC-2998 colon = test system: HCC-2998 colon
COLO 205 colon = test system: COLO 205 colon
SK-MEL-2 melanoma = test system: SK-MEL-2 melanoma
HS 578T breast = test system: HS 578T breast
T-47D breast = test system: T-47D breast
NCI-H460 lung = test system: NCI-H460 lung
IGROV1 ovarian = test system: IGROV1 ovarian
RXF 393 renal = test system: RXF 393 renal
HOP-92 NSCLC = test system: HOP-92 NSCLC
SNB-19 CNS = test system: SNB-19 CNS
SW-620 colon = test system: SW-620 colon
HCT-15 colon = test system: HCT-15 colon
OVCAR-4 ovarian = test system: OVCAR-4 ovarian
PC-3 prostate = test system: PC-3 prostate
CCRF-CEM leukemia = test system: CCRF-CEM leukemia
MDA-N = test system: MDA-N
MDA-MB-231 breast = test system: MDA-MB-231 breast
UO-31 renal = test system: UO-31 renal
A549 NSCLC = test system: A549 NSCLC
NCI-H226 lung = test system: NCI-H226 lung
NCI/ADR-RES ovarian = test system: NCI/ADR-RES ovarian
SN12C renal = test system: SN12C renal
786-0 renal = test system: 786-0 renal
SR leukemia = test system: SR leukemia
KM12 colon = test system: KM12 colon
SNB-75 CNS = test system: SNB-75 CNS
SF-295 CNS = test system: SF-295 CNS

CCOP(OCC)c1cn(CCCCOC(C)=O)nn1
GI50 (CAKI-1 renal): > 100 µM | TGI (CAKI-1 renal): > 100 µM | GI50 (MALME-3M melanoma): > 100 µM | TGI (MALME-3M melanoma): > 100 µM | GI50 (HOP-62 NSCLC): > 100 µM | TGI (HOP-62 NSCLC): > 100 µM | GI50 (SF-268 CNS): > 100 µM | TGI (SF-268 CNS): > 100 µM | GI50 (TK-10 renal): > 100 µM | TGI (TK-10 renal): > 100 µM | GI50 (U251 CNS): > 100 µM | TGI (U251 CNS): > 100 µM | GI50 (MOLT-4 leukemia): > 100 µM | TGI (MOLT-4 leukemia): > 100 µM | GI50 (OVCAR-8 ovarian): > 100 µM | TGI (OVCAR-8 ovarian): > 100 µM | GI50 (NCI-H322M lung): > 100 µM | TGI (NCI-H322M lung): > 100 µM | GI50 (SK-MEL-5 melanoma): > 100 µM | TGI (SK-MEL-5 melanoma): > 100 µM | GI50 (SK-MEL-28 melanoma): > 100 µM | TGI (SK-MEL-28 melanoma): > 100 µM | GI50 (LOX IMVI melanoma): > 100 µM | TGI (LOX IMVI melanoma): > 100 µM | GI50 (UACC-62 melanoma): > 100 µM | TGI (UACC-62 melanoma): > 100 µM | GI50 (DU-145 prostate): > 100 µM | TGI (DU-145 prostate): > 100 µM | GI50 (EKVX NSCLC): > 100 µM | TGI (EKVX NSCLC): > 100 µM | GI50 (NCI-H23 lung): > 100 µM | TGI (NCI-H23 lung): > 100 µM | GI50 (UACC-257 melanoma): > 100 µM | TGI (UACC-257 melanoma): > 100 µM | GI50 (BT-549 breast): > 100 µM | TGI (BT-549 breast): > 100 µM | GI50 (MCF7 breast): > 100 µM | TGI (MCF7 breast): > 100 µM | GI50 (HT29 colon): > 100 µM | TGI (HT29 colon): > 100 µM | GI50 (HCT-116 colon): > 100 µM | TGI (HCT-116 colon): > 100 µM | GI50 (ACHN renal): > 100 µM | TGI (ACHN renal): > 100 µM | GI50 (MDA-MB-435): > 100 µM | TGI (MDA-MB-435): > 100 µM | GI50 (HCC-2998 colon): > 100 µM | TGI (HCC-2998 colon): > 100 µM | GI50 (COLO 205 colon): > 100 µM | TGI (COLO 205 colon): > 100 µM | GI50 (SK-MEL-2 melanoma): > 100 µM | TGI (SK-MEL-2 melanoma): > 100 µM | GI50 (HS 578T breast): > 100 µM | TGI (HS 578T breast): > 100 µM | GI50 (T-47D breast): > 100 µM | TGI (T-47D breast): > 100 µM | GI50 (NCI-H460 lung): > 100 µM | TGI (NCI-H460 lung): > 100 µM | GI50 (IGROV1 ovarian): > 100 µM | TGI (IGROV1 ovarian): > 100 µM | GI50 (RXF 393 renal): > 100 µM | TGI (RXF 393 renal): > 100 µM | GI50 (HOP-92 NSCLC): > 100 µM | TGI (HOP-92 NSCLC): > 100 µM | GI50 (SNB-19 CNS): > 100 µM | TGI (SNB-19 CNS): > 100 µM | GI50 (SW-620 colon): > 100 µM | TGI (SW-620 colon): > 100 µM | GI50 (HCT-15 colon): > 100 µM | TGI (HCT-15 colon): > 100 µM | GI50 (OVCAR-4 ovarian): > 100 µM | TGI (OVCAR-4 ovarian): > 100 µM | GI50 (PC-3 prostate): > 100 µM | TGI (PC-3 prostate): > 100 µM | GI50 (CCRF-CEM leukemia): > 100 µM | TGI (CCRF-CEM leukemia): > 100 µM | GI50 (MDA-N): > 100 µM | TGI (MDA-N): > 100 µM | GI50 (MDA-MB-231 breast): > 100 µM | TGI (MDA-MB-231 breast): > 100 µM | GI50 (UO-31 renal): > 100 µM | TGI (UO-31 renal): > 100 µM | GI50 (A549 NSCLC): > 100 µM | TGI (A549 NSCLC): > 100 µM | GI50 (NCI-H226 lung): > 100 µM | TGI (NCI-H226 lung): > 100 µM | GI50 (NCI/ADR-RES ovarian): > 100 µM | TGI (NCI/ADR-RES ovarian): > 100 µM | GI50 (SN12C renal): > 100 µM | TGI (SN12C renal): > 100 µM | GI50 (786-0 renal): > 100 µM | TGI (786-0 renal): > 100 µM | GI50 (SR leukemia): > 100 µM | TGI (SR leukemia): > 100 µM | GI50 (KM12 colon): > 100 µM | TGI (KM12 colon): > 100 µM | GI50 (SNB-75 CNS): > 100 µM | TGI (SNB-75 CNS): > 100 µM | GI50 (SF-295 CNS): > 100 µM | TGI (SF-295 CNS): > 100 µM
